The target in one assay is Elastase (Pseudomonas aeruginosa (strain ATCC 15692 / PAO1 / 1C / PRS 101 / LMG12228), UniProt P14756). As to the kind of experiment: Inhibition of Pseudomonas aeruginosa pseudolysin pretreated with compound for 1 hr followed by the addition of 1.73 uM bradykinin like substrate by spectrofluorometry.
The target of assay [1] is T1, Thermolysin (Bacillus thermoproteolyticus, UniProt P00800).
T1 sequence (P00800 whole entry): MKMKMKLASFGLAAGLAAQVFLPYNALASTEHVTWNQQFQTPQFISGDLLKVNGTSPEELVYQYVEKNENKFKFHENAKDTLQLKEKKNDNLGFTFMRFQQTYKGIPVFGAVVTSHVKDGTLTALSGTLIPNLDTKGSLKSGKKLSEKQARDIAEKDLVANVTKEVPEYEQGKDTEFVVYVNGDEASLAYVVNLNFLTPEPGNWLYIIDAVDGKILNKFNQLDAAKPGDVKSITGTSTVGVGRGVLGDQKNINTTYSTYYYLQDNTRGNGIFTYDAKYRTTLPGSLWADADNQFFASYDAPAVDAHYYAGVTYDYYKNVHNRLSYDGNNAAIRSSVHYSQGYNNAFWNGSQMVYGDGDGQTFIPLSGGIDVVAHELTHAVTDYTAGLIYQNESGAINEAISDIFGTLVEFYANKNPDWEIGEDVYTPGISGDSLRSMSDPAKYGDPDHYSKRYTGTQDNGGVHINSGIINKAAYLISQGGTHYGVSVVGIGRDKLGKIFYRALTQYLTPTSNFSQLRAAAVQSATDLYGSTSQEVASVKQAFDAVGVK
Nature of the assay: Inhibition of Bacillus thermoproteolyticus thermolysin pretreated with compound for 15 mins followed by the addition of 75 uM Abz-Ala-Gly-leu-Ala-p-nitrobenzalamide as substrate by spectrofluorometry.

The chains behind the UniProt entries cited, without tags or fusion partners. Where a name states a change or a piece, a line headed by the entry shows the natural chain unless it says otherwise.
UniProt P14756: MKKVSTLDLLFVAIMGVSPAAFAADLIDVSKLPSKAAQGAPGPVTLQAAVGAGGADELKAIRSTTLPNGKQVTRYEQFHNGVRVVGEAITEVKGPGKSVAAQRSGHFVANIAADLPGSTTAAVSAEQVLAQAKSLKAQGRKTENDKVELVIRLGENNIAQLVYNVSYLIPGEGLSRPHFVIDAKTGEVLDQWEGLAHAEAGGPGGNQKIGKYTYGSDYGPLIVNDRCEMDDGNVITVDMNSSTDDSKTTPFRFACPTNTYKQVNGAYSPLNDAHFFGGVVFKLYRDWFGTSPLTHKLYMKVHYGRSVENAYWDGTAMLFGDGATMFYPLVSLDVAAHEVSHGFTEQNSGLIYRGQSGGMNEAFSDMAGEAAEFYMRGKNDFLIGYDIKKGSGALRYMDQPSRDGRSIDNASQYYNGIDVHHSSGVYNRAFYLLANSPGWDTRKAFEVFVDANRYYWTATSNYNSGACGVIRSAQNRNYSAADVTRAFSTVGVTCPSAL

Assay [2] addresses T1, Thermolysin. As to the kind of experiment: Inhibition of Bacillus thermoproteolyticus thermolysin pretreated with compound for 1 hr followed by the addition of 3.33 uM bradykinin like substrate by spectrofluorometry assay.
In assay [3] the target is Thermolysin (Bacillus thermoproteolyticus) (UniProt P00800). Nature of the assay: Inhibition of Bacillus thermoproteolyticus thermolysin pretreated with compound for 15 mins followed by the addition of Abz-Ala-Gly-leu-Ala-p-nitrobenzalamide as substrate by spectrofluorometry.

Turning to `CC(C)ON([C@@H](C(=O)NO)C(C)C)S(=O)(=O)c1ccc(-c2ccccc2)cc1`, the IC50 amounted to 798 µM on Elastase, 416 µM on Thermolysin [1], 800 µM on Thermolysin [2] and 57 µM in assay [3].

With `COc1ccc(S(=O)(=O)N(CC(=O)NO)OC23CC4CC(CC(C4)C2)C3)cc1`, the IC50 on Elastase was 142 µM; on Thermolysin [1], 90 µM; on Thermolysin [2], 438 µM; in assay [3], 51 µM.

Take `CC(C)CN([C@@H](C(=O)NO)C(C)C)S(=O)(=O)c1ccc(-c2ccccc2)cc1`: the IC50 on Elastase is 226 µM; on Thermolysin [1], 243 µM; at Thermolysin [2], 608 µM; in assay [3] it was 29 µM.

For orientation: IC50 means the midpoint of a concentration-inhibition curve.
